Source: US20250228913A1, “STABILIZED OMEGA-3 OPHTHALMIC COMPOSITIONS” (Allergan, Inc., priority 2014, published 2025)

Assay: Chemical stability of omega-3 oils in emulsions (FIG. 1, FIG. 2)
Conditions: emulsions of Table 10

Effect of excipient on chemical stability of omega-3 oils in emulsion: worsened the chemical stability
Structure (SMILES): CC(=O)Oc1c(C)c(C)c2c(c1C)CCC(C)(CCC[C@H](C)CCC[C@H](C)CCCC(C)C)O2 (stereo partly shown) [Vitamin E acetate]
